Assay results from ChEMBL document CHEMBL5143569 (Eur J Med Chem, 2022).

Chains of the proteins cited; added tags and fusions are not shown.
UniProt Q06124, whole entry: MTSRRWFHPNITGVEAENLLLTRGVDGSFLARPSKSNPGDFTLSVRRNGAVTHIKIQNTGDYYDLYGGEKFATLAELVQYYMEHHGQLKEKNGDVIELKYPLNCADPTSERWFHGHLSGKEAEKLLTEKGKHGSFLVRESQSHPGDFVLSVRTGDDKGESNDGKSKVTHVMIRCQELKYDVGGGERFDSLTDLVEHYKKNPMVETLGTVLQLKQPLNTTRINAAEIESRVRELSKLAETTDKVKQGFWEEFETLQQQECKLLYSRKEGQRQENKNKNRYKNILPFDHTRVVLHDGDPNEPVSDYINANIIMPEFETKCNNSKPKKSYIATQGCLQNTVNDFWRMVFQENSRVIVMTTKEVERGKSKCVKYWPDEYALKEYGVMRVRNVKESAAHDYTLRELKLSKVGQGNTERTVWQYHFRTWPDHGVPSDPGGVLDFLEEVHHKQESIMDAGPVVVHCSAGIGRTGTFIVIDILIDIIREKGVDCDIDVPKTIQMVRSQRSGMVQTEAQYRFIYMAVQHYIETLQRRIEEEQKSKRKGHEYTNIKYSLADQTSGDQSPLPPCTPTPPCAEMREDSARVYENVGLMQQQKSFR

Molecular target: Tyrosine-protein phosphatase non-receptor type 11 (Homo sapiens, UniProt Q06124)

IC50: > 10 µM
Compound: NCC1CCN(c2cnc(-c3cccc(Cl)c3Cl)c(N)n2)CC1
